The record followed here is patent US4225529A, “Compositions containing platinum” (Johnson, Matthey & Co., Limited, priority 1977, dated 1980).

The nature of the series: solubility. It counts as physicochemical. The text has this:
The complex was insoluble in hot water, ethanol, aqueous sodium sulphate solution, methanol and acetone. However, the complex was soluble in concentrated sulphuric acid and was recrystallised as follows.

In the case of “Aquobis(n-butylamine)sulphatoplatinum(II) [Example 7]”, the solubility result (concentrated sulphuric acid) is “soluble”; the solubility entry (hot water, ethanol, aqueous sodium sulphate solution, methanol and acetone) was “insoluble”.
